Experimental data as given in ChEMBL document CHEMBL4342412, “How To Design Selective Ligands for Highly Conserved Binding Sites: A Case Study Using N-Myristoyltransferases as a Model System” (J Med Chem, 2020).

The chains behind the UniProt entries cited, without tags or fusion partners.
UniProt P30419, whole entry L495M: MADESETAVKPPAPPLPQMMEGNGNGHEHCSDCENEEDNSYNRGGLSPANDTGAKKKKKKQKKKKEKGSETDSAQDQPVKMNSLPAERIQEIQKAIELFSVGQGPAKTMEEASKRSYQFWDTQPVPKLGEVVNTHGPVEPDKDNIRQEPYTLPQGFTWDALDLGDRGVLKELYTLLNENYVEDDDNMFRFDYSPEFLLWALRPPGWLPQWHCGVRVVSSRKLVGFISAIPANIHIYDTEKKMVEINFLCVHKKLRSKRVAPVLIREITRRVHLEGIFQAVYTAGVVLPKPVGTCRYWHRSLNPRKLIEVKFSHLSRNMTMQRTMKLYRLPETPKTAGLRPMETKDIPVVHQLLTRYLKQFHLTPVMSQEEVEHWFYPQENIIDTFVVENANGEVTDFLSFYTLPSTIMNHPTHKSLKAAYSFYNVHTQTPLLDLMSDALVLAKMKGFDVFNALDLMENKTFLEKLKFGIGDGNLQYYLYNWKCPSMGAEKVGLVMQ

Molecular target: Glycylpeptide N-tetradecanoyltransferase 1 (Homo sapiens, UniProt P30419, L495M)
Format: ADME

## COc1cccc(Cc2noc(-c3ccccc3OC3CCNCC3)n2)c1
  Ki: 1600 nM

## N[C@@H](CC(=O)N1C[C@H](CO)[C@@H](c2ccc(Cl)cc2)C1)Cc1ccc(Cl)cc1
  Ki: 550 nM
